Drawing on patent US12060433B2, “CD73 inhibitor and A2A/A2B adenosine receptor inhibitor combination therapy” (Incyte Corporation, priority 2020, dated 2024), this text covers Ki and EC50 for two compounds.

Amino acid sequences for entries named in this document (tags omitted). A change or cut given only in a name is not applied to a line headed by its entry.
UniProt P29275, whole entry: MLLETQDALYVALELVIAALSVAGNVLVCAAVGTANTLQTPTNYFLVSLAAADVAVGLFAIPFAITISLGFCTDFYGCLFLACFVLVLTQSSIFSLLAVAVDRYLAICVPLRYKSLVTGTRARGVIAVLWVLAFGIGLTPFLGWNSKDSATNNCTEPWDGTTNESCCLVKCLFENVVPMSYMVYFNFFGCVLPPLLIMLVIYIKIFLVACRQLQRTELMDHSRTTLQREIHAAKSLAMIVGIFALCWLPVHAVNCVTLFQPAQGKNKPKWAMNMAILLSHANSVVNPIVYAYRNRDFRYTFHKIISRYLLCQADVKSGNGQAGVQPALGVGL

The target in assay [1] is Adenosine A2A receptor (Tag-Lite Adenosine A2A labeled cells) (Homo sapiens, UniProt P29274). Briefly: A2A Tag-lite HTRF assay (displacement of fluorescent antagonist ligand). The following applies: read-out: A2A_Ki; fluorescent ligand 12.5 nM, ligand Kd 1.85 nM; tested form: TFA. (In general: TR-FRET usually uses a lanthanide donor and a delayed reading to cut background.)

The target in assay [2] is human adenosine A2B receptor (stably transfected HEK-293 cells) (Homo sapiens, UniProt P29275). Kind of assay: Adenosine A2B receptor cyclic AMP GS assay. Type of assay: cell-based. To be noted: read-out: A2B_cAMP_EC50; agonist NECA at 12 nM; cAMP accumulation; tested form: TFA. (cAMP levels reflect the balance of adenylyl cyclase and phosphodiesterase activity.)

For the compound `N#Cc1cccc(-c2nc(N)n3nc(Cn4nnc(-c5ccccn5)n4)nc3c2-c2ccncn2)c1`, the Ki in assay [1] is below 0.01 µM. The EC50 in assay [2] was below 0.01 µM.
With `N#Cc1cccc(-c2nc(N)n3nc(Cn4nnc(-n5cccn5)n4)nc3c2-c2ccncn2)c1`, the Ki in assay [1] was below 0.01 µM. Also, the EC50 in assay [2] is below 0.01 µM.
